Earlier results on three molecules are cited in paper PMC9227077 (2022).

What is called logP is the decadic logarithm of the partition coefficient of the neutral form, usually between octanol and water. Usually logD stands for the decadic logarithm of the distribution of all forms, ionised or not, between an organic phase and buffer at a given pH.

Where two headings read alike, the source gives them in different places.

The conditions of series [1]: experimental, cited from earlier work; for logP: octanol-water partition coefficient.
The conditions of series [2]: rat, in vivo; cited from earlier work.
Another series has as its system human serum albumin. Particulars: pH=7.4, isocratic, 10% acetonitrile; available for 37 compounds, remaining calculated by equation; cited from earlier work.

As for `Cc1nc2n(c(=O)c1CCN1CCC(c3noc4cc(F)ccc34)CC1)CCCC2` [Risperidone], the logP in series [1] is 2.50. Further, in series [1] (pH=5.0, octanol-water), the logD is reported as -1.24. Also, in series [1] (pH=7.4, octanol-water), the logD was 1.63. Besides, in series [2], the “Kp,brain” value is on record as 0.95 and the logBB exper. was -0.02.
As to `OCCOCCN1CCN(C(c2ccccc2)c2ccc(Cl)cc2)CC1` (stereo not shown) [Hydroxyzine], the logP in series [1] was 3.5.
Regarding `CN(C)CCCN1c2ccccc2CCc2ccccc21` [Imipramine], in the series on human serum albumin, the “logk10,HSA” value is 0.77.
